High-throughput results: PubChem, National Center for Advancing Translational Sciences (NCATS)
KDM4E inh: JMJD2E (human) inhibition. B2RXH2. AID 2147. 1.6% of 230,000 active. JMJD2E catalytic domain, FDH-coupled NADH fluorescence (FDH is formaldehyde dehydrogenase). Potency, µM (doses to about 57.1 µM), actives largely listed as inhibitors; active = well fitted inhibition curve with a large enough effect, not every such curve was filed as active; inconclusive = small, poorly fitted or top-dose-only effect, or another doubt; inactive = no such curve, though single readings can be large or run the other way; also: nearly all actives have a fitted effect of over 50% in size
G9a block: G9a (human) methyltransferase inhibition; 8.8% of 350,000 active; Potency, µM (doses to about 102 µM), hits mostly inhibitors; Q96KQ7; G9a H3K9 monomethylation, AlphaScreen, 2 h; also: nearly all actives have a fitted effect of over 75% in size
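Compounds were preincubated with 20 nM G9a for 15 min, after which biotinylated H3K9 peptide (500 nM) and SAM (20 uM) started a 2 h room-temperature reaction. Monomethylated product was quantified by antibody-based AlphaScreen chemiluminescence.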
Sfp inh: blocks B. subtilis Sfp PPTase activity; AID 1490; 3.5% of 310,000 active; Biochemical Sfp PPTase activity, qHTS; Potency, µM, most hits filed as inhibitors;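 also: the enzyme is Sfp with the accession as filed and its product quenches rhodamine fluorescence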
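Step 1, compound plus 15 nM Sfp-PPTase, 15 min, room temperature. Step 2, add rhodamine-CoA (5 uM) and BHQ-2-YbbR (12.5 uM). Step 3, read 525/598 nm fluorescence at 0 and 30 min.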
miR-21 reporter: raises the signal of a miR-21 reporter; AID 2288; 340,000 tested, under 10 active; Potency, µM (doses to about 38.3 µM); HeLa miR-21 FLuc reporter, luciferase, 48 h; active = well fitted rising curve with a large enough effect; inconclusive = small, poorly fitted or top-dose-only effect; inactive = no such curve, though single readings can be large or run the other way;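 note: miR-21 action dims this reporter so a rising signal means less miR-21 action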
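Using DMEM plus 10% FBS, HeLa miR-21-FLuc cells are incubated with test compounds (final up to about 40uM) for 48 hours; firefly luciferase signal is then imaged following reagent-mediated lysis.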
ALDH1A1 block: blocks purified human ALDH1A1 activity. P00352. Purified ALDH1A1, NADH fluorescence, propionaldehyde substrate. Potency, µM (titrated, usually from 75.3 µM), actives largely listed as inhibitors. 7.3% of 220,000 active; active = well fitted inhibition curve with a large enough effect, not every such curve was filed as active; inconclusive = small, poorly fitted or top-dose-only effect, or another doubt; inactive = no such curve, though single readings can be large or run the other way
LMNA splice mod: LMNA splicing modulation. HeLa LMNA splicing GFP/RFP minigene ratio, 48 h. Potency, µM (series often up to 46.1 µM), most hits filed as inhibitors. 0.01% of 200,000 active. AID 1487; active = well fitted inhibition curve with a large enough effect in the signal ratio, with a control signal flat, not every such curve was filed as active; inconclusive = small, poorly fitted or top-dose-only effect, or effect the other way, or a change in a side signal; the % refers to the signal ratio
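S3 HeLa cells stably expressing lamin A-EGFP splicing minigene plus DsRed2, 600 cells/well, 48 h compound exposure at 37C. Laser-scanning cytometry; analysed as GFP (500-530 nm)/RFP (575-640 nm) total intensity ratio; 0.5% DMSO vehicle.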
Of the large screens only hits and unclear results are named; the others gave an inactive call. Most compounds without a hit are left out; they make up all but 13% or so of the library. Unless noted, calls follow the shape of the dose curve; as a rule, active = well fitted curve in the direction sought with a large enough effect; inconclusive = small, poorly fitted or top-dose-only effect, or another doubt; inactive = no such curve, though single readings can be large; an effect the other way counts as inactive or inconclusive.

Cc1noc(C)c1CSCC(=O)N(C)CC(=O)Nc1ccccc1C(F)(F)F	none (no result: KDM4E inh, Sfp inh, miR-21 reporter, ALDH1A1 block, LMNA splice mod)
CC(=O)N(Cc1ccc(F)cc1)C1=C(NCCc2ccccc2)C(=O)c2ccccc2C1=O	KDM4E inh inconclusive, G9a block 28µM, miR-21 reporter inconclusive, ALDH1A1 block inconclusive, LMNA splice mod inconclusive
O=C(c1nc(-c2ccccc2)n(-c2ccccc2)n1)N1CCCCCC1	ALDH1A1 block 8.9µM
Cc1cccc(NC(=O)c2nc(-c3ccccc3)n(-c3ccccc3)n2)c1C	ALDH1A1 block 32µM
Cc1nn(-c2ccccc2)c2sc(C(=O)N3CCc4ccccc4C3)cc12	KDM4E inh inconclusive, Sfp inh inconclusive, ALDH1A1 block inconclusive, LMNA splice mod inconclusive
Cc1cccc(NC(=O)c2cnn(-c3ccccc3)c2C)c1C	none (no result: KDM4E inh, G9a block, ALDH1A1 block, LMNA splice mod)
Cc1nn(-c2ccccc2)c2sc(C(=O)N3CCCCC3)cc12	ALDH1A1 block 1.8µM, LMNA splice mod inconclusive
Cc1cccc(-n2c(=O)c3c(c4cc(C)ccc4n3C)n(CC(=O)Nc3ccc(C)c(C)c3)c2=O)c1	none (no result: KDM4E inh, Sfp inh, ALDH1A1 block, LMNA splice mod)
CN1CCCC(OC(=O)COc2ccccc2)C1 (configuration not stated)	G9a block 50µM
CC1c2cc3c(cc2CCN1C(=O)c1cccc(F)c1)OCCCO3 (configuration not stated)	none (no result: KDM4E inh, ALDH1A1 block, LMNA splice mod)
COc1ccccc1-c1noc(-c2ccc(NC(C)C)c([N+](=O)[O-])c2)n1	none (no result: KDM4E inh, Sfp inh, ALDH1A1 block, LMNA splice mod)
O=C(c1cc(C(F)(F)F)cc(C(F)(F)F)c1)N1CCC2(CCCN(c3ccncc3)C2)CC1	none (no result: KDM4E inh, miR-21 reporter, LMNA splice mod)
COc1ccc(Cc2nc(-c3ccc(Br)o3)no2)cc1OC	G9a block 50µM, ALDH1A1 block inconclusive
COc1ccc(-c2noc(-c3ccc(Br)o3)n2)cc1OC	none
Brc1ccc(-c2noc(COc3ccc4ccccc4c3)n2)o1	G9a block 45µM, Sfp inh inconclusive
COc1cccc(OCc2nc(-c3ccc(Br)o3)no2)c1	G9a block inconclusive, ALDH1A1 block inconclusive
COC(=O)c1ccn(CC(=O)NC2CCCCC2)n1	none (no result: KDM4E inh, G9a block, ALDH1A1 block, LMNA splice mod)
Cc1cc(NC(=O)CSc2sc3c(O)cc(=O)[nH]c3c2C#N)ccc1Br	G9a block 35µM, Sfp inh inconclusive (no result: KDM4E inh, ALDH1A1 block, LMNA splice mod)
N#Cc1c(SCC(=O)Nc2cccc(C(F)(F)F)c2)sc2c(O)cc(=O)[nH]c12	G9a block 45µM, Sfp inh 40µM (no result: KDM4E inh, ALDH1A1 block, LMNA splice mod)
Cc1ccccc1C(=O)NCc1nnc(SCC(=O)N2c3ccccc3Sc3ccccc32)n1C	G9a block inconclusive, ALDH1A1 block 25µM
C=CCn1c(CNC(=O)c2ccco2)nnc1SCC(=O)N1c2ccccc2Sc2ccccc21	G9a block inconclusive, ALDH1A1 block 0.56µM
Cn1c(CNC(=O)c2ccccc2F)nnc1SCc1ccc(Cl)cc1	none
Cc1ccc(C2=Nc3ccccc3N(CC(=O)Nc3ccccc3F)C(=O)C2)cc1C	none (no result: KDM4E inh, Sfp inh, ALDH1A1 block)
O=C(Nc1ccc(O)c(C(=O)O)c1)c1ccc2c(c1)C(=O)N(CC1CCCO1)C2=O (configuration not stated)	ALDH1A1 block 10µM
Cc1ccc(NC(=O)c2ccc3c(c2)C(=O)N(CC2CCCO2)C3=O)cc1C (configuration not stated)	ALDH1A1 block 3.2µM
COc1ccc(NC(=O)c2ccc3c(c2)C(=O)N(CC2CCCO2)C3=O)cc1O (configuration not stated)	none (no result: KDM4E inh, ALDH1A1 block, LMNA splice mod)
Cc1cc(C)c(C(=O)CSC2=NC(N)=C(C#N)C3(CCCCC3)C2C(N)=O)cc1C (configuration not stated)	G9a block 79µM
Cc1cc(C)c(C(=O)CSc2nnc(N)s2)cc1C	G9a block inconclusive (no result: LMNA splice mod)
Cc1ccc(C(=O)N/C(=C/c2ccco2)C(=O)Nc2cccc(C)c2)cc1	G9a block inconclusive, Sfp inh 35µM, ALDH1A1 block inconclusive
O=C(Nc1cccc(F)c1)/C(=C\c1cccnc1)NC(=O)c1ccco1	none
Cc1cccc(NC(=O)/C(=C\c2ccco2)NC(=O)c2cccs2)c1	G9a block 32µM, Sfp inh 56µM
O=C(Nc1cccc(F)c1)/C(=C/c1ccco1)NC(=O)c1ccco1	G9a block 28µM, Sfp inh inconclusive (no result: KDM4E inh, ALDH1A1 block, LMNA splice mod)
Cc1ccc(C(=O)N/C(=C/c2ccco2)C(=O)NCc2ccco2)cc1	G9a block 45µM (no result: KDM4E inh, ALDH1A1 block, LMNA splice mod)
COc1ccc(NCc2nnc(-c3ccccc3)o2)cc1	none (no result: KDM4E inh, ALDH1A1 block, LMNA splice mod)
